Measurements published in PubChem BioAssay AID504326 (The Scripps Research Institute Molecular Screening Center, 2011).
The list shows a part of the results, in another mix than the full data. Calls of active or inactive are those of the source. No stated cut-off is given here; in the data, active means activation above about 18%; inactive means the rest.

Sequences of proteins named here, by UniProt entry; tags and fusion partners are left off.
UniProt P35372, whole entry, looked up: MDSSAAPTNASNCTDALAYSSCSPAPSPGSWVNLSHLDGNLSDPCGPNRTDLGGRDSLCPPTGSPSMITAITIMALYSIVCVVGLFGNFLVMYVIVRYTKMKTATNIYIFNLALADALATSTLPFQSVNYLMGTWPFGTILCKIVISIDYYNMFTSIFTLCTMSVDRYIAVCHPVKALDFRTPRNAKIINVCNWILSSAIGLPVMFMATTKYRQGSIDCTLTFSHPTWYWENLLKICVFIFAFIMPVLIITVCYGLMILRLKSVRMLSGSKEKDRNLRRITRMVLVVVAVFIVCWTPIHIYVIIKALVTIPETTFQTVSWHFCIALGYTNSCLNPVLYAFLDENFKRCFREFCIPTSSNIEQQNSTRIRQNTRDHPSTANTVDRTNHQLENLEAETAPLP
UniProt P41143, whole entry, looked up: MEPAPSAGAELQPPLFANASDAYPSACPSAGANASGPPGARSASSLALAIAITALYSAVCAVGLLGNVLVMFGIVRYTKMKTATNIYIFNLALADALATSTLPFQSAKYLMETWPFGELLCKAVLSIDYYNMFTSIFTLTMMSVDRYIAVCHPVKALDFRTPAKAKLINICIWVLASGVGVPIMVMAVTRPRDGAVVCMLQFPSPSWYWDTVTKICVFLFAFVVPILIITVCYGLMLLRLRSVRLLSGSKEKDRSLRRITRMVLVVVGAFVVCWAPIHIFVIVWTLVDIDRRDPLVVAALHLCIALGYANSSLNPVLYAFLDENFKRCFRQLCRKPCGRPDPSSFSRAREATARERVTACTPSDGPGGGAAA

target: Mu-type opioid receptor (Homo sapiens) + Delta-type opioid receptor (Homo sapiens) (UniProt P35372+P41143); assay: agonists of OPRM1-OPRD1 heterodimerization, primary screen, cell-based, luminescence (AID 504326); conditions: cells, at 9.3 µM, hits give high values;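 further: 0% = vehicle-treated cells and 100% = reference agonist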

Row | Compound | activation
1 | CC(C)C[C@H](NC(=O)N1CCn2c1nc1ccccc12)C(=O)NCc1ccccc1 | inactive: -2.02%
2 | Fc1ccc2c(c1)nnn2C1CCN(Cc2nnnn2CCc2ccccc2)CC1 | inactive: -1.76%
3 | CC(C)[C@H](NC(=O)N1CCn2c1nc1ccccc12)C(=O)NCc1ccc(F)cc1 | inactive: -0.08%
4 | COCC(=O)N(C)[C@H]1C[C@H]2c3cc(Oc4ccccc4C)ccc3CCN2C(=O)[C@H]1[C@H](C)O | inactive: -3.57%
5 | COCCN1CCn2c(nc3cc(NC(=O)Cn4nc(C)c5ccccc5c4=O)ccc32)C1 | inactive: -1.32%
6 | COc1ccc(CCNC(=O)[C@H](C)NC(=O)N2CCn3c2nc2ccccc23)cc1OC | inactive: -1.28%
7 | CC(=O)Nc1ccc([As](=O)(O)O)c(O)c1 | inactive: -3.55%
8 | O=S(=O)(c1ccc(F)cc1)N1CCn2c(nc3ccccc32)C1 | inactive: -1.46%
9 | CSCC[C@H](NC(=O)N1CCn2c1nc1ccccc12)C(=O)NC1CCCCC1 | inactive: -0.4%
10 | CC1=NNC(=O)C1CCC(=O)N/N=C/C=C/c1ccccc1 (stereo not drawn) | inactive: -3.54%
11 | CCOC(=O)c1ccc(NC(=O)C2CC(=O)Nc3nc4ccccc4n32)cc1 (stereo not drawn) | inactive: -1.65%
12 | CCC(C(=O)NC1CCCC1)n1c(SCc2cccc(C)c2)nc2ccncc21 (stereo not drawn) | inactive: 0.41%
13 | COc1ccc2c(c1)C1(Nc3ccccc3-c3nc4ccccc4n31)C(=O)N2 (stereo not drawn) | inactive: -1.5%
14 | Cn1c(=O)c2c(ncn2CC(=O)Nc2cc(S(=O)(=O)N3CCCCC3)ccc2Cl)n(C)c1=O | inactive: -1.11%
15 | CN1C(=O)CC(n2c(CO)nc3ccccc32)C1=O (stereo not drawn) | inactive: -0.93%
16 | O=C(CCNC(=O)N1CCn2c1nc1ccccc12)NCc1ccc(Cl)cc1 | inactive: -1.65%
17 | Cc1cc(NC(=O)CSc2nc3ccccc3n2CC(=O)N2CCC(C)CC2)no1 | inactive: -0.9%
18 | Cc1nc2cc(C(F)(F)F)ccc2n1C1CCN(Cc2nnnn2CCc2ccccc2)CC1 | inactive: -2.39%
19 | CC(=O)Nc1ccc(Oc2c([N+](=O)[O-])cc([N+](=O)[O-])cc2[N+](=O)[O-])cc1 | inactive: -2.92%
20 | CC(=O)c1ccc(N2CC2c2ccncc2)cc1 (stereo not drawn) | inactive: -3.79%
21 | N#C/C(=C\c1ccc(N(CCBr)CCBr)cc1)C(N)=O | inactive: -3.16%
22 | O=C(Cn1c(SCC(=O)N2CCCc3ccccc32)nc2ccccc21)N1CCCC1 | inactive: -2.7%

Row | Compound | activation
23 | Cc1ccc2c(c1)C1CN(C)CCC1N2S(=O)(=O)c1cccc(F)c1 (stereo not drawn) | inactive: -4.85%
24 | O=C(Cn1cnc2ccccc21)N/N=C/C(Br)=C/c1ccccc1 | inactive: 2.91%
25 | Cn1c(=O)c2c(ncn2CC(=O)N/N=C/C(Cl)=C/c2ccccc2)n(C)c1=O | inactive: -0.82%
26 | COC(=O)C1(C)COP(=O)(NCc2ccccc2)OC1 (stereo not drawn) | inactive: -3.24%
27 | CC(NC(=O)CCCCCNC(=O)N1CCn2c1nc1ccccc12)c1ccccc1 (stereo not drawn) | inactive: -0.74%
28 | Cc1ccc2c(c1)C1CN(C)CCC1N2C(=O)COc1ccc(N(C)S(=O)(=O)c2cccs2)cc1 (stereo not drawn) | inactive: -0.43%
29 | O=C(CCCCCNC(=O)N1CCn2c1nc1ccccc12)N[C@H](C(=O)O)c1ccccc1 | inactive: -3.42%
30 | COC(=O)c1ccccc1NC(=O)Cn1c(-c2nonc2N)nc2ccccc21 | inactive: -2.78%
31 | CC(C)(C)NC(=O)Cn1c(SCC(=O)Nc2nccs2)nc2ccccc21 | inactive: -2.29%
32 | Cc1ccccc1CN(C)C(=O)COC(=O)C(O)(c1ccccc1)c1ccccc1 | inactive: -1.41%
33 | Cc1ccc2c(c1)C1CN(C)CCC1N2C(=O)Nc1cccc(Cl)c1 (stereo not drawn) | inactive: 5.21%
34 | CCOc1ccc(S(=O)(=O)N(C)c2ccc(OCC(=O)N3c4ccc(C)cc4C4CN(C)CCC43)cc2)cc1 (stereo not drawn) | inactive: -0.88%
35 | Cc1ccccc1Oc1ccc2c(c1)[C@@H]1C[C@H](N(C)C(=O)Nc3cc(Cl)cc(Cl)c3)[C@H]([C@H](C)O)C(=O)N1CC2 | inactive: -3.08%
36 | CN(C)CCn1c(N)nc2ccccc21 | inactive: 1.04%
37 | CN(C)C(=O)CSc1nc2ccccc2n1CC(=O)N1CCN(c2ccccc2)CC1 | inactive: -0.96%
38 | C[C@H]1OP(=O)(Oc2ccccc2)C[C@@H]2O[C@@H]21 (stereo partly drawn) | inactive: -0.37%
39 | CCC(=O)Nc1nc2ccccc2n1CCN(C)C | inactive: -1.23%
40 | Cc1ccc2c(c1)C1CN(C)CCC1N2Sc1ccccc1[N+](=O)[O-] (stereo not drawn) | inactive: 0.81%
41 | C[C@@H]1C=CCP(=O)(Oc2ccccc2)O1 (stereo partly drawn) | inactive: -1.02%
42 | C[C@H](O)[C@@H]1C(=O)N2CCc3ccc(-c4ccccc4)cc3[C@@H]2C[C@@H]1N(C)C(=O)c1ccc(C#N)cc1 | inactive: -1.3%
43 | O=C(CCNC(=O)N1CCn2c1nc1ccccc12)NCc1ccccc1Cl | inactive: -3.3%
44 | CCc1cc(O)c([N+](=O)[O-])c(C)c1[N+](=O)[O-] | inactive: -2.98%

Row | Compound | activation
45 | CCOC(=O)c1ccc(NC(=O)Cn2c(-c3nonc3N)nc3ccccc32)cc1 | inactive: 12.2%
46 | CSc1nc2ccccc2n1CC(=O)Nc1c(C)n(C)n(-c2ccccc2)c1=O | inactive: 1.2%
47 | Cc1ccc2c(c1)C1C[N+](C)(CC(=O)c3ccccc3)CCC1N2C(=O)c1ccccc1Cl (stereo not drawn) | inactive: 0.63%
48 | CC(/C=C/c1ccccc1)=N/NC(=O)CCC(=O)Nc1ccccc1C | inactive: -0.93%
49 | COc1cccc(C(=O)CSc2nc3ccccc3n2CC(=O)N2CCOCC2)c1 | inactive: -3.15%
50 | O=C(Cn1c(-c2cncs2)nc2ccccc21)NCCc1ccccc1 | inactive: -0.82%
51 | O=C(Cn1c(CO)nc2ccccc21)Nc1ccccc1Cl | inactive: -1.17%
52 | COc1ccc(Cl)cc1NC(=O)CN(C)C(=O)Cn1cnc2c1c(=O)n(C)c(=O)n2C | inactive: -0.27%
53 | CC(C)(C)C(=O)NC(Sc1ccccc1)C(Cl)(Cl)Cl (stereo not drawn) | inactive: 4.79%
54 | COc1ccc(/C=N/NC(=O)Cn2cnc3c2c(=O)n(C)c(=O)n3C)cc1 | inactive: -3.37%
55 | COC(=O)C1=C(Cn2cnc3ccccc32)NC(=O)NC1c1cc(C)ccc1C (stereo not drawn) | inactive: -0.43%
56 | c1ccc(CN2CCC(Nc3nc(-c4cccnc4)nc4ccccc34)CC2)cc1 | inactive: -1.64%
57 | C[C@H](NC(=O)N1CCn2c1nc1ccccc12)C(=O)N1CCCCC1 | inactive: -2.86%
58 | CCc1cccc(CC)c1N(COC)C(=O)Cn1c(CO)nc2ccccc21 | inactive: -4.1%
59 | CCOC(=O)CC[C@H](NC(=O)Cn1cnc2c(SC)nc(N)nc21)C(=O)OCC | inactive: -3.24%
60 | CSc1nc2ccccc2n1CC(=O)Nc1ccc(C)c(C)c1 | inactive: -0.6%
61 | CC(C)(C)NC(=O)Cn1c(SCC(N)=O)nc2ccccc21 | inactive: -1.82%
62 | O=C(Cn1c(NCCO)nc2ccccc21)Nc1ccc2c(c1)OCCCO2 | inactive: -0.22%
63 | CC(C)CCNC(=O)CC1C(=O)N(Cc2ccccc2)C(C)c2nc3ccccc3n21 (stereo not drawn) | inactive: -2.17%
64 | N#Cc1cccc(NC(=O)Cn2c3[n+](c4ccc(C(F)(F)F)cc42)CCCCC3)c1 | inactive: -2.38%
65 | Cc1ccc2c(c1)C1CN(C)CCC1N2C(=O)COc1ccc(N(C)C(=O)c2ccccc2)cc1 (stereo not drawn) | inactive: -2.31%
66 | N=c1n(CCCOc2ccccc2Cl)c2ccccc2n1CC(N)=O | inactive: -3.69%

Row | Compound | activation
67 | CC1CN(C(=O)Cn2cnc3c2c(=O)n(C)c(=O)n3C)CC(C)O1 (stereo not drawn) | inactive: -2%
68 | C[C@H](NC(=O)N1CCn2c1nc1ccccc12)C(=O)NCc1ccccc1 | inactive: -0.52%
69 | COc1cccc(CNC(=O)[C@H](CCSC)NC(=O)N2CCn3c2nc2ccccc23)c1 | inactive: -2.79%
70 | Cc1nc2ccccc2n1CC(=O)N1CC(=O)Nc2ccccc21 | inactive: 4.59%
71 | COC(=O)c1ccc(CNC(=O)Cn2cnc3c(NCc4ccccc4)ncnc32)cc1 | inactive: -0.42%
72 | O=P1(Nc2nc3ccc(Cl)cc3s2)COc2ccccc2O1 (stereo not drawn) | inactive: -0.91%
73 | CCn1c(=O)c2c(nc3n2CCN3c2ccccc2)n(C)c1=O | inactive: -1.5%
74 | O=C(Cn1cnc2c(OCc3ccccc3)ncnc21)NCc1ccccc1 | inactive: -4.9%
75 | COCCNC(=O)Cn1cnc2c1c(=O)n(C)c(=O)n2C | inactive: -2.69%
76 | CCOc1ccc(C2=NCC(CBr)S2)cc1 (stereo not drawn) | inactive: -2.95%
77 | COCCN1CCn2c(nc3cc(NC(C)=O)ccc32)C1 | inactive: -1.33%
78 | COCCNC(=O)Cn1c(=O)n(C)c2ccccc21 | inactive: -1.3%
79 | Cn1c(=O)c2c(ncn2CC(=O)N2CCN(c3ccccc3)CC2)n(C)c1=O | inactive: -2.25%
80 | C[C@H](O)[C@@H]1C(=O)N2CCc3ccc(-c4cccc(F)c4)cc3[C@@H]2C[C@@H]1N(C)C(=O)Nc1ccccc1 | inactive: 1.86%
81 | COCCN1CCn2c(nc3cc(Nc4nnc(C)c5ccccc45)ccc32)C1 | inactive: -3.33%
82 | CCc1cccc(C)c1N(C(=O)Cn1c(CO)nc2ccccc21)C(C)COC (stereo not drawn) | inactive: -1.24%
83 | CC(NC(=O)COC(=O)C(O)(c1ccccc1)c1ccccc1)c1ccccc1 (stereo not drawn) | inactive: 0.76%
84 | CC1CCCN(C(=O)Cn2cnc3c2c(=O)n(C)c(=O)n3C)C1 (stereo not drawn) | inactive: -3.04%
85 | Cc1ccc(CNC(=O)Cn2cnc3c(NC(=O)OCc4ccccc4)ncnc32)o1 | inactive: -2.75%
86 | CCOC(=O)C1=C(Cn2cnc3ccccc32)NC(=O)NC1c1ccc(Cl)cc1 (stereo not drawn) | inactive: -0.44%
87 | Cc1ccccc1OP(=O)(Nc1ccccn1)Oc1ccccc1C | inactive: -0.23%
88 | O=c1c2cc([N+](=O)[O-])ccc2[nH]c2c([N+](=O)[O-])cc([N+](=O)[O-])cc12 | inactive: 2.11%
